Membrane permeability of cyclic peptides

Data: CycPeptMPDB; original report Townsend et al. 2020, doi:10.26434/chemrxiv.13335941.v1.

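Lipid, pH, incubation time, direction and concentration are not recorded in the data file. Other peptides of the study may be missing here. Entries at the database's floor value (log10 P of -10) are not listed.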

PAMPA is the parallel artificial membrane permeability assay, which has no cells and reads passive diffusion. P is given in units of 10^-6 cm/s (from log10 values with two decimals); larger means faster passage.

SMILES | PAMPA (10^-6 cm/s)
CCCN1CC(=O)N(C)[C@@H](CC(C)C)C(=O)N[C@@H](Cc2ccccc2)CC(=O)N2CCC[C@@H]2C(=O)N(C)[C@@H](CC(C)C)C(=O)N[C@@H](Cc2ccccc2)C1=O | 5.2
CCCN1CC(=O)N[C@@H](CC(C)C)C(=O)N[C@@H](Cc2ccccc2)CC(=O)N2CCC[C@H]2C(=O)N[C@@H](CC(C)C)C(=O)N[C@@H](Cc2ccccc2)C1=O | 1
CC(C)C[C@@H]1NC(=O)[C@@H]2CCCN2C(=O)CN(Cc2ccccc2)C(=O)CN(Cc2ccccc2)C(=O)C[C@H](Cc2ccccc2)NC(=O)[C@@H]2CCCN2C(=O)[C@H](Cc2ccccc2)NC1=O | 1
CC(C)C[C@H]1NC(=O)[C@@H]2CCCN2C(=O)C[C@H](Cc2ccccc2)NC(=O)CN(Cc2ccccc2)C(=O)[C@H](C)NC(=O)[C@H]2CCCN2C(=O)[C@H](Cc2ccccc2)NC1=O | 0.11
CC(C)C[C@@H]1C(=O)N(Cc2ccccc2)CC(=O)N2CCC[C@H]2C(=O)N(Cc2ccccc2)CC(=O)N[C@@H](Cc2ccccc2)C(=O)N2CCC[C@@H]2C(=O)N[C@@H](Cc2ccccc2)CC(=O)N1C | 1.8
CC(C)C[C@H]1C(=O)N(Cc2ccccc2)CC(=O)N2CCC[C@H]2C(=O)N(Cc2ccccc2)CC(=O)N[C@@H](Cc2ccccc2)C(=O)N2CCC[C@H]2C(=O)N[C@@H](C)C(=O)N1C | 0.32
CC(C)C[C@H]1NC(=O)C[C@H](Cc2ccccc2)NC(=O)[C@H]2CCCN2C(=O)[C@H](Cc2ccccc2)NC(=O)CN(Cc2ccccc2)C(=O)[C@@H]2CCCN2C(=O)CN(Cc2ccccc2)C1=O | 1.4
CC(C)C[C@H]1NC(=O)[C@H]2CCCN2C(=O)CN(Cc2ccccc2)C(=O)CN(Cc2ccccc2)C(=O)[C@H](C)N(C)C(=O)[C@H]2CCCN2C(=O)[C@H](Cc2ccccc2)NC1=O | 0.95
CC(C)C[C@H]1NC(=O)[C@@H]2CCCN2C(=O)C[C@H](Cc2ccccc2)NC(=O)CN(Cc2ccccc2)C(=O)C[C@H](Cc2ccccc2)NC(=O)[C@H](Cc2ccccc2)NC1=O | 0.83
CC(C)C[C@H]1NC(=O)[C@H]2CCCN2C(=O)C[C@H](Cc2ccccc2)NC(=O)CN(Cc2ccccc2)C(=O)C[C@H](Cc2ccccc2)NC(=O)[C@H](Cc2ccccc2)NC1=O | 1.1
CC(C)C[C@@H]1NC(=O)[C@@H]2CCCN2C(=O)C[C@H](Cc2ccccc2)NC(=O)[C@@H](CC(C)C)N(C)C(=O)C[C@H](Cc2ccccc2)NC(=O)[C@H](Cc2ccccc2)NC1=O | 1.9
CC(C)C[C@H]1NC(=O)[C@@H]2CCCN2C(=O)[C@@H](CC(C)C)NC(=O)CN(Cc2ccccc2)C(=O)[C@H](C)N(C)C(=O)[C@@H]2CCCN2C(=O)[C@H](Cc2ccccc2)NC1=O | 1.6
CC(C)C[C@@H]1C(=O)N[C@@H](Cc2ccccc2)CC(=O)N2CCC[C@H]2C(=O)N(Cc2ccccc2)CC(=O)N[C@@H](Cc2ccccc2)C(=O)N[C@H](C)C(=O)N1C | 3
CCCN1CC(=O)N[C@H](CC(C)C)C(=O)N[C@@H](Cc2ccccc2)CC(=O)N2CCC[C@H]2C(=O)N(C)[C@H](CC(C)C)C(=O)N[C@@H](Cc2ccccc2)C1=O | 2.1
CCCN1CC(=O)N[C@H](CC(C)C)C(=O)N(C)[C@@H](CC(C)C)C(=O)N2CCC[C@H]2C(=O)N(C)[C@@H](CC(C)C)C(=O)N[C@@H](Cc2ccccc2)C1=O | 17
CC(C)C[C@H]1C(=O)N[C@@H](Cc2ccccc2)CC(=O)N2CCC[C@@H]2C(=O)N(Cc2ccccc2)CC(=O)N[C@@H](Cc2ccccc2)C(=O)N[C@@H](C)C(=O)N1C | 1
CC(C)C[C@H]1NC(=O)[C@@H](C)NC(=O)[C@H]2CCCN2C(=O)[C@H](Cc2ccccc2)NC(=O)CN(Cc2ccccc2)C(=O)[C@H]2CCCN2C(=O)C[C@H](Cc2ccccc2)NC1=O | 0.36
CC(C)C[C@H]1NC(=O)[C@H]2CCCN2C(=O)C[C@H](Cc2ccccc2)NC(=O)CN(Cc2ccccc2)C(=O)[C@@H](C)NC(=O)[C@H]2CCCN2C(=O)[C@H](Cc2ccccc2)NC1=O | 1.3
CCCN1CC(=O)N(Cc2ccccc2)CC(=O)N(Cc2ccccc2)CC(=O)N2CCC[C@H]2C(=O)N(Cc2ccccc2)CC(=O)N[C@@H](Cc2ccccc2)C(=O)N2CCC[C@@H]2C1=O | 0.52
CC(C)C[C@@H]1NC(=O)[C@@H](C)NC(=O)[C@H](Cc2ccccc2)NC(=O)CN(Cc2ccccc2)C(=O)[C@H]2CCCN2C(=O)C[C@H](Cc2ccccc2)NC1=O | 1.6
CC(C)C[C@@H]1NC(=O)[C@@H]2CCCN2C(=O)C[C@H](Cc2ccccc2)NC(=O)CN(Cc2ccccc2)C(=O)[C@@H](C)NC(=O)[C@H](Cc2ccccc2)NC1=O | 0.85

The 3 lowest values of PAMPA among the entries above:

| SMILES | PAMPA (10^-6 cm/s) |
|---|---|
| CC(C)C[C@H]1NC(=O)[C@@H]2CCCN2C(=O)C[C@H](Cc2ccccc2)NC(=O)CN(Cc2ccccc2)C(=O)[C@H](C)NC(=O)[C@H]2CCCN2C(=O)[C@H](Cc2ccccc2)NC1=O | 0.11 |
| CC(C)C[C@H]1C(=O)N(Cc2ccccc2)CC(=O)N2CCC[C@H]2C(=O)N(Cc2ccccc2)CC(=O)N[C@@H](Cc2ccccc2)C(=O)N2CCC[C@H]2C(=O)N[C@@H](C)C(=O)N1C | 0.32 |
| CC(C)C[C@H]1NC(=O)[C@@H](C)NC(=O)[C@H]2CCCN2C(=O)[C@H](Cc2ccccc2)NC(=O)CN(Cc2ccccc2)C(=O)[C@H]2CCCN2C(=O)C[C@H](Cc2ccccc2)NC1=O | 0.36 |